{"sequences": {"note": "Chains of the proteins cited; added tags and fusions are not shown. Lines headed by an entry give the natural chain unless they say otherwise; changes in a name come on top. Residues count along the entry.", "UniProt P54289, 25-1103 limits assumed": "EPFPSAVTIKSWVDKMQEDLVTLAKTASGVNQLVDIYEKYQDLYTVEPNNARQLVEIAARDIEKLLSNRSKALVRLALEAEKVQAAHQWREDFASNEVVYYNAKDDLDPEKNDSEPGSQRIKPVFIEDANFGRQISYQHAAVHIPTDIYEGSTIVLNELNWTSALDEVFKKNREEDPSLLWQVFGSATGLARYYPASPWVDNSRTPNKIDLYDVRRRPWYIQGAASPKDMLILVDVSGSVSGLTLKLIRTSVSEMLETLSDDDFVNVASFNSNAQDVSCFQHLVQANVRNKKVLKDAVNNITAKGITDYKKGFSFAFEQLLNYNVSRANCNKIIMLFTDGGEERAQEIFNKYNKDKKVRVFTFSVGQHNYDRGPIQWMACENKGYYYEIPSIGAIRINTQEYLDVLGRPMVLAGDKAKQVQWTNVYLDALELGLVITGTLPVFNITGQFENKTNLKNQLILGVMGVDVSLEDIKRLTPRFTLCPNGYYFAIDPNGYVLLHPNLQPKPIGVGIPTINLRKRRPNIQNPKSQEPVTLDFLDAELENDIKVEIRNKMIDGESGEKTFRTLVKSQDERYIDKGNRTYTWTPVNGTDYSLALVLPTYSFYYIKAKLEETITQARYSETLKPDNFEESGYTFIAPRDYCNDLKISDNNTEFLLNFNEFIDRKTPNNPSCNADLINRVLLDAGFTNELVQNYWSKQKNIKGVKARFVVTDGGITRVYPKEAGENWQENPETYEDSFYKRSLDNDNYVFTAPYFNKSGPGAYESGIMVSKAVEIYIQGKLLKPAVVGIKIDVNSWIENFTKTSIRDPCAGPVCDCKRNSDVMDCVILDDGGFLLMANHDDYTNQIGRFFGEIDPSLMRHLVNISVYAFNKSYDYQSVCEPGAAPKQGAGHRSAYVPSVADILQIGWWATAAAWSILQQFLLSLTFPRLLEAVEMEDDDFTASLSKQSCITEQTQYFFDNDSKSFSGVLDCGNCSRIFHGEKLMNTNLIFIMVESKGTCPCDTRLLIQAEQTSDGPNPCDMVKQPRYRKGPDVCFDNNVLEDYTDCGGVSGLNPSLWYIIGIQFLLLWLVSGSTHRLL"}, "source": "patent US10577360B2", "about": "“Arylamide derivatives having multimodal activity against pain” (ESTEVE PHARMACEUTICALS, S.A., priority 2016, dated 2020)", "note": "This is a selection: effects in other tests are not listed, and their absence says nothing."}
{"biological_target": "Human α2δ-1 subunit of Cav2.2 calcium channel (Homo sapiens (Human), UniProt P54289)", "experiment": "Human α2δ-1 subunit of Cav2.2 calcium channel assay ([3H]-Gabapentin binding)", "settings": "read-out: α2δ − 1 (Ki)", "units": {"Ki": "µM"}}
{"smiles": "COc1cc(F)cc(-n2ccc(N(C(=O)c3cccs3)C3CCN(C)CC3)n2)c1", "Ki": "0.1 to 0.5"}
{"smiles": "CN1CCC(N(C(=O)c2cccnc2)c2ccn(-c3ccccc3)n2)CC1", "Ki": "> 5"}
{"smiles": "Cc1nnc(-c2cccc(-n3cc(N(C(=O)c4ccc(O)cc4)C4CCN(C)CC4)cn3)c2)o1", "Ki": "> 5"}
{"smiles": "COc1cccc(-n2ccc(N(C(=O)c3cccs3)C3CCN(Cc4cccc(C(F)(F)F)n4)CC3)n2)c1", "Ki": "> 5"}
{"smiles": "Cc1nnc(-c2cccc(C(=O)N(c3ccn(-c4ccccc4)n3)C3CCN(C)CC3)c2)o1", "Ki": "> 5"}
{"smiles": "Cc1nnc(-c2cccc(-n3ccc(N(C(=O)c4cccs4)C4CCN(Cc5ccccn5)CC4)n3)c2)o1", "Ki": "0.1 to 0.5"}
{"smiles": "O=C(c1cccs1)N(c1ccn(-c2c(Cl)cncc2Cl)n1)C1CCN(Cc2ccccc2)CC1", "Ki": "> 5"}
{"smiles": "Cc1nnc(-c2cccc(-n3ccc(N(C(=O)c4ccco4)C4CCN(Cc5ccccc5)CC4)n3)c2)o1", "Ki": "0.1 to 0.5"}
{"smiles": "O=C(c1nccs1)N(c1ccn(-c2ccccc2)n1)C1CCN(Cc2ccccc2)CC1", "Ki": "0.5 to 5"}
{"smiles": "O=C(c1cccs1)N(c1ccn(-c2cccc(F)c2)n1)C1CCN(Cc2ccccc2)CC1", "Ki": "0.5 to 5"}
{"smiles": "CN1CCC(N(C(=O)c2cccs2)c2ccn(-c3ccncc3F)n2)CC1", "Ki": "0.5 to 5"}
{"smiles": "Cc1nnc(-c2cccc(-n3ccc(N(C(=O)c4cccc(O)c4)C4CCN(Cc5ccccc5)CC4)n3)c2)o1", "Ki": "0.5 to 5"}
{"smiles": "O=C(c1cccs1)N(c1cncc(-c2ccccc2)n1)C1CCN(Cc2ccccc2)CC1", "Ki": "> 5"}
{"smiles": "O=C(c1cccs1)N(c1ccn(-c2cccnc2)n1)C1CCN(Cc2ccccc2)CC1", "Ki": "0.5 to 5"}
{"smiles": "CN1CCC(N(C(=O)c2cccs2)c2ccn(-c3ccccc3)n2)CC1", "Ki": "0.1 to 0.5"}
{"smiles": "CN1CCC(N(C(=O)c2cccs2)c2ccn(-c3cccc(C#N)c3)n2)CC1", "Ki": "0.5 to 5"}
{"smiles": "CN1CCC(N(C(=O)c2cccs2)c2ccn(-c3ccc(Cl)cc3Cl)n2)CC1", "Ki": "0.5 to 5"}
{"smiles": "COc1cc(Cl)cc(-n2ccc(N(C(=O)c3cccs3)C3CCN(C)CC3)n2)c1", "Ki": "0.5 to 5"}
{"smiles": "CN1CCC(N(C(=O)c2cccs2)c2ccn(-c3ccc(O)cc3Cl)n2)CC1", "Ki": "0.5 to 5"}
{"smiles": "CN1CCC(N(C(=O)c2cccs2)c2ccn(-c3ccc(C#N)cc3)n2)CC1", "Ki": "0.5 to 5"}
{"smiles": "Cc1nnc(-c2cccc(-n3ccc(N(C(=O)c4cccs4)C4CCN(Cc5cccc(C(F)(F)F)n5)CC4)n3)c2)o1", "Ki": "0.5 to 5"}
{"smiles": "O=C(c1cccs1)N(c1ccn(-c2ccncc2)n1)C1CCN(Cc2ccccc2)CC1", "Ki": "0.5 to 5"}
{"smiles": "O=C(c1ccoc1)N(c1ccn(-c2ccc(F)cc2)n1)C1CCN(Cc2ccccc2)CC1", "Ki": "0.5 to 5"}
{"smiles": "O=C(c1sccc1Cl)N(c1ccn(-c2ccccc2)n1)C1CCN(Cc2ccccc2)CC1", "Ki": "> 5"}
{"smiles": "CC1CC(N(C(=O)c2cccs2)c2ccn(-c3ccccc3)n2)CC(C)N1Cc1ccccc1", "note": "(stereo not drawn)", "Ki": "> 5"}
{"smiles": "COc1ccc(-n2ccc(N(C(=O)c3cccs3)C3CCN(C)CC3)n2)cc1OC", "Ki": "> 5"}
{"smiles": "O=C(c1cccs1)N(c1ccn(-c2ccncc2Cl)n1)C1CCN(Cc2ccccc2)CC1", "Ki": "0.5 to 5"}
{"smiles": "O=C(c1ccco1)N(c1ccn(-c2ccc(F)cc2)n1)C1CCN(Cc2ccccc2)CC1", "Ki": "> 5"}
{"smiles": "O=C(c1cncs1)N(c1ccn(-c2ccccc2)n1)C1CCN(Cc2ccccc2)CC1", "Ki": "> 5"}
{"smiles": "COc1cc(-n2ccc(N(C(=O)c3cccs3)C3CCN(C)CC3)n2)ccc1F", "Ki": "0.5 to 5"}
{"smiles": "COCCOc1cccc(-n2ccc(N(C(=O)c3cccs3)C3CCN(C)CC3)n2)c1", "Ki": "0.5 to 5"}
{"smiles": "CN1CCC(N(C(=O)c2cccs2)c2ccn(-c3ccccn3)n2)CC1", "Ki": "> 5"}
{"smiles": "Cc1cc(N(C(=O)c2cccs2)C2CCN(C)CC2)nn1-c1ccccc1", "Ki": "> 5"}
{"smiles": "CN1CCC(N(C(=O)c2cccs2)c2ccn(-c3cccnc3)n2)CC1", "Ki": "0.5 to 5"}
{"smiles": "Cc1nnc(-c2cccc(-n3ccc(N(C(=O)c4cccs4)C4CCN(CC(O)c5ccccc5)CC4)n3)c2)o1", "note": "(stereo not drawn)", "Ki": "> 5"}
{"smiles": "CCN1CCC(N(C(=O)c2cccs2)c2ccn(-c3ccccc3)n2)CC1", "Ki": "0.5 to 5"}
{"smiles": "CC1CC(N(C(=O)c2cccs2)c2ccn(-c3ccccc3)n2)CC(C)N1C", "note": "(stereo not drawn)", "Ki": "0.5 to 5"}
{"smiles": "CN1CCC(N(C(=O)c2cccs2)c2cncc(-c3ccc(F)cc3)n2)CC1", "Ki": "> 5"}
{"smiles": "CN1CCC(N(C(=O)c2cccs2)c2ccn(-c3cccc(F)c3)n2)CC1", "Ki": "0.5 to 5"}
